B1: 208-6502: ADC of Example 208 (Intermediate F104) with anti-B7H3 antibody 6502 (conjugate)
heavy: EVQLLESGGGLVQPGGSLRLSCAASGFTFSTYGMHWVRQAPGKGLEWVSAISGSGGSTYYADSVKGRFTISRDNSKNTLYLQMNSLRAEDTAVYYCTRGYYYYGMDVWGQGTLVTVSSASTKGPSVFPLAPSSKSTSGGTAALGCLVKDYFPEPVTVSWNSGALTSGVHTFPAVLQSSGLYSLSSVVTVPSSSLGTQTYICNVNHKPSNTKVDKKV[left out - human IgG1 Fc]
light: QSVLTQPPSASGTPGQRVTISCSGGSSNIGSNPVNWYQQLPGTAPKLLIYGNSKRPSGVPDRFSGSKSGTSASLAISGLRSEDEADYYCQSYDSSLSGWVFGGGTKLTVLGQPKAAPSVTLFPPSSEELQANKATLVCLISDFYPGAVTVAWKADSSPVKAGVETTTPSKQSNNKYAASSYLSLTPEQWKSHRSYSCQVTHEGSTVEKTVAPTECS
B2: 208-6515: ADC of Example 208 (Intermediate F104) with anti-B7H3 antibody 6515 (conjugate)
heavy: EVQLLESGGGLVQPGGSLRLSCAASGFTFSSYGMHWVRQVPGKGLEWVSAISGSGGTTYYADSVKGRFTISRDNSKNTLYLQMNSLRAEDTAVYYCARGGYHFLFDYWGQGTLVTVSSASTKGPSVFPLAPSSKSTSGGTAALGCLVKDYFPEPVTVSWNSGALTSGVHTFPAVLQSSGLYSLSSVVTVPSSSLGTQTYICNVNHKPSNTKVDKKV[left out - human IgG1 Fc]
light: QSVLTQPPSASGTPGQRVTISCSGSSSNIGSNTVNWYQQLPGTAPKLLIYRNDQRLLGVPDRFSGSKSGTSASLAISGLRSEDEADYYCQSYDSSLSGWVFGGGTKLTVLGQPKAAPSVTLFPPSSEELQANKATLVCLISDFYPGAVTVAWKADSSPVKAGVETTTPSKQSNNKYAASSYLSLTPEQWKSHRSYSCQVTHEGSTVEKTVAPTECS
B3: 257-6499: ADC of Example 257 (Intermediate F257) with anti-B7H3 antibody 6499 (conjugate)
heavy: EVQLLESGGGLVQPGGSLRLSCAASGFTFRDFYMNWIRQAPGKGLEWVSSISASGKYTYYADSVKGRFTISRDNSKNTLYLQMNSLRAEDTAVYYCAREWGYCTNDVCRNWFDPWGQGTLVTVSSASTKGPSVFPLAPSSKSTSGGTAALGCLVKDYFPEPVTVSWNSGALTSGVHTFPAVLQSSGLYSLSSVVTVPSSSLGTQTYICNVNHKPSNTKVDKKV[left out - human IgG1 Fc]
light: QSVLTQPPSASGTPGQRVTISCSGGYSNVGGNNVNWYQQLPGTAPKLLIYGNSNRPSGVPDRFSGSKSGTSASLAISGLRSEDEADYYCQSYDSSLSGSVFGGGTKLTVLGQPKAAPSVTLFPPSSEELQANKATLVCLISDFYPGAVTVAWKADSSPVKAGVETTTPSKQSNNKYAASSYLSLTPEQWKSHRSYSCQVTHEGSTVEKTVAPTECS
B4: 173-6515: ADC of Example 173 (Intermediate F173) with anti-B7H3 antibody 6515 (conjugate)
heavy: EVQLLESGGGLVQPGGSLRLSCAASGFTFSSYGMHWVRQVPGKGLEWVSAISGSGGTTYYADSVKGRFTISRDNSKNTLYLQMNSLRAEDTAVYYCARGGYHFLFDYWGQGTLVTVSSASTKGPSVFPLAPSSKSTSGGTAALGCLVKDYFPEPVTVSWNSGALTSGVHTFPAVLQSSGLYSLSSVVTVPSSSLGTQTYICNVNHKPSNTKVDKKV[left out - human IgG1 Fc]
light: QSVLTQPPSASGTPGQRVTISCSGSSSNIGSNTVNWYQQLPGTAPKLLIYRNDQRLLGVPDRFSGSKSGTSASLAISGLRSEDEADYYCQSYDSSLSGWVFGGGTKLTVLGQPKAAPSVTLFPPSSEELQANKATLVCLISDFYPGAVTVAWKADSSPVKAGVETTTPSKQSNNKYAASSYLSLTPEQWKSHRSYSCQVTHEGSTVEKTVAPTECS
B5: 194-6502 (conjugate)
heavy: EVQLLESGGGLVQPGGSLRLSCAASGFTFSTYGMHWVRQAPGKGLEWVSAISGSGGSTYYADSVKGRFTISRDNSKNTLYLQMNSLRAEDTAVYYCTRGYYYYGMDVWGQGTLVTVSSASTKGPSVFPLAPSSKSTSGGTAALGCLVKDYFPEPVTVSWNSGALTSGVHTFPAVLQSSGLYSLSSVVTVPSSSLGTQTYICNVNHKPSNTKVDKKV[left out - human IgG1 Fc]
light: QSVLTQPPSASGTPGQRVTISCSGGSSNIGSNPVNWYQQLPGTAPKLLIYGNSKRPSGVPDRFSGSKSGTSASLAISGLRSEDEADYYCQSYDSSLSGWVFGGGTKLTVLGQPKAAPSVTLFPPSSEELQANKATLVCLISDFYPGAVTVAWKADSSPVKAGVETTTPSKQSNNKYAASSYLSLTPEQWKSHRSYSCQVTHEGSTVEKTVAPTECS
B6: 208-6499: ADC of Example 208 (Intermediate F104) with anti-B7H3 antibody 6499 (conjugate)
heavy: EVQLLESGGGLVQPGGSLRLSCAASGFTFRDFYMNWIRQAPGKGLEWVSSISASGKYTYYADSVKGRFTISRDNSKNTLYLQMNSLRAEDTAVYYCAREWGYCTNDVCRNWFDPWGQGTLVTVSSASTKGPSVFPLAPSSKSTSGGTAALGCLVKDYFPEPVTVSWNSGALTSGVHTFPAVLQSSGLYSLSSVVTVPSSSLGTQTYICNVNHKPSNTKVDKKV[left out - human IgG1 Fc]
light: QSVLTQPPSASGTPGQRVTISCSGGYSNVGGNNVNWYQQLPGTAPKLLIYGNSNRPSGVPDRFSGSKSGTSASLAISGLRSEDEADYYCQSYDSSLSGSVFGGGTKLTVLGQPKAAPSVTLFPPSSEELQANKATLVCLISDFYPGAVTVAWKADSSPVKAGVETTTPSKQSNNKYAASSYLSLTPEQWKSHRSYSCQVTHEGSTVEKTVAPTECS

Tested on: Raji: human Burkitt's lymphoma cells, B7H3-negative
Test: CTG cytotoxicity assay of anti-B7H3 ADCs, Raji
Assay type: cell-based
Details: 72 h incubation
Protocol: The analysis of the cytotoxic effects of the anti-B7H3 ADCs was carried out with various cell lines:
Raji: human Burkitt's lymphoma cells, DMSZ-ACC-319, standard medium: RPMI 1640; (Biochrom; # FG 1215, with stable glutamine)+10% FCS (Biochrom; # S0415), B7H3-negative.
The cells were cultivated by the standard method as stated by the American Tissue Culture Collection (ATCC) for the cell lines in question.
The cells were cultivated according to the standard method using the growth media listed under C-1. The test was carried out by detaching the cells with a solution of trypsin (0.05%) and EDTA (0.02%) in PBS (Biochrom AG #L2143), pelleting, resuspending in culture medium, counting and sowing into a 96-well culture plate with white bottom (Costar #3610) (75 μl/well, the following cell numbers per well: NCI-H292: 2500 cells/well, BxPC3 2500 cells/well) and incubating in an incubator at 37° C. in 5% carbon dioxide. After 24 h, the antibody drug conjugates in 25 μl of culture medium (four-fold concentrated) were added to the cells such that a final concentration of antibody drug conjugates of 3×10^−7 M to 3×10^−11 M on the cells was reached (in triplicate). The cells were then incubated in an incubator at 37° C., and 5% carbon dioxide. In a parallel plate, the cell vitality was determined at the start of the drug treatment (day 0) using the Cell Titer Glow (CTG) Luminescent Cell Viability Assay (Promega #G7573 and #G7571). To this end, 100 μl of the […] were added per cell batch, the plates were then covered with aluminium foil, shaken on the plate shaker at 180 rpm for 2 minutes, allowed to stand on the laboratory bench for 8 minutes and then measured using a luminometer (Victor X2, Perkin Elmer). The substrate detects the ATP content in the living cells, generating a luminescence signal of which the height is directly proportional to the vitality of the cells. After 72 h of incubation with the antibody drug conjugates, in these cells, too, the vitality was determines using the Cell Titer Glow Luminescent Cell Viability Assay as described above. From the measured data, the IC^50 of the growth inhibition in comparison to day 0 was calculated using the DRC (dose response curve) analysis spreadsheet with a 4-parameter fit. The DRC analysis spreadsheet is a Biobook Spreadsheet developed by Bayer Pharma AG and Bayer Business Services on the IDBS E-WorkBook Suite platform (1DBS: ID Business Solutions Ltd., Guildford, UK).

Molecule | IC50
B1 | 124 nM
B2 | 114 nM
B3 | 72.8 nM
B4 | 123 nM
B5 | > 300 nM
B6 | > 300 nM

Source: US11071788B2, “Antibody drug conjugates of kinesin spindel protein (KSP) inhibitors with antiB7H3-antibodies” (BAYER PHARMA AKTIENGESELLSCHAFT, priority 2015, dated 2021)
